Like-named read-outs stand apart in the source and are kept apart here.
Tests used:
[1] = target: T1, SARS-CoV-2 helicase (Severe acute respiratory syndrome coronavirus 2, UniProt P0DTD1); assay: Zinc supplementation assay; assay type: biochemical; conditions: up to 50 molar equivalents of zinc(II) added to bismuth bound helicase
[2] = target: T1, SARS-CoV-2 helicase; conditions: read-out: IC50 ATPase activity; based on metal content
[3] = target: T1, SARS-CoV-2 helicase; conditions: read-out: IC50 DNA-unwinding activity; based on metal content

| Compound | ATPase activity restored by zinc(II) [1] | duplex-unwinding activity restored by zinc(II) [1] | IC50 [2] | IC50 [3] |
| --- | --- | --- | --- | --- |
| [Bi+3] [Bi^3+] | ~6% | ~13% |  |  |
| CCP(CC)CC.[Au+].[Cl-] [Au(PEt3)Cl, chloro(triethylphosphine)gold(I)] |  |  | 230 ± 10 nM | 340 ± 70 nM |

Reference: patent US20230218663A1, “COMPOSITIONS AND METHODS FOR TREATING A SARS-COV-2 INFECTION” (priority 2020, published 2023)
